Results on 15 compounds are retold here after ChEMBL document CHEMBL5390232, “Discovery of (E)-2-(hydroxyimino)-N-(2 ((4methylpentyl)amino)ethyl)acetamide (KR-27425) as a non-pyridinium oxime reactivator of paraoxon-inhibited acetylcholinesterase” (2023).

Chains of the proteins cited; added tags and fusions are not shown. Lines headed by an entry give the natural chain unless they say otherwise; changes in a name come on top.
UniProt O42275: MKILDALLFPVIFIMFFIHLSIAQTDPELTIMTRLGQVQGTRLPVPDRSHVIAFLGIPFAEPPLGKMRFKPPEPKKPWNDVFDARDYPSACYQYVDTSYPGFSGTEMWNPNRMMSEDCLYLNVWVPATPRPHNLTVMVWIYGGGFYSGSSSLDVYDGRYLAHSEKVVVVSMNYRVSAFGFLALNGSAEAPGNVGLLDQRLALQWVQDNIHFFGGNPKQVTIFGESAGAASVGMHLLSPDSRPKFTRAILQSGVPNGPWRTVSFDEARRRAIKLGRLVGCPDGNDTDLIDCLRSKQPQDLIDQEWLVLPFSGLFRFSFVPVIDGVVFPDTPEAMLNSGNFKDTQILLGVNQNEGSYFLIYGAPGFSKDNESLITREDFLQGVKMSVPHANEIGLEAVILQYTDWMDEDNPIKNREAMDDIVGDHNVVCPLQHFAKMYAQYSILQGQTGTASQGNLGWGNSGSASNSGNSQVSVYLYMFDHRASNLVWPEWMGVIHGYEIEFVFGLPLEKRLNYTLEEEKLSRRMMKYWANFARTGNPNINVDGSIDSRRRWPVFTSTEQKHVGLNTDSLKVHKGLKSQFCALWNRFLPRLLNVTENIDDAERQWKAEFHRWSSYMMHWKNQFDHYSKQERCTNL
UniProt P22303: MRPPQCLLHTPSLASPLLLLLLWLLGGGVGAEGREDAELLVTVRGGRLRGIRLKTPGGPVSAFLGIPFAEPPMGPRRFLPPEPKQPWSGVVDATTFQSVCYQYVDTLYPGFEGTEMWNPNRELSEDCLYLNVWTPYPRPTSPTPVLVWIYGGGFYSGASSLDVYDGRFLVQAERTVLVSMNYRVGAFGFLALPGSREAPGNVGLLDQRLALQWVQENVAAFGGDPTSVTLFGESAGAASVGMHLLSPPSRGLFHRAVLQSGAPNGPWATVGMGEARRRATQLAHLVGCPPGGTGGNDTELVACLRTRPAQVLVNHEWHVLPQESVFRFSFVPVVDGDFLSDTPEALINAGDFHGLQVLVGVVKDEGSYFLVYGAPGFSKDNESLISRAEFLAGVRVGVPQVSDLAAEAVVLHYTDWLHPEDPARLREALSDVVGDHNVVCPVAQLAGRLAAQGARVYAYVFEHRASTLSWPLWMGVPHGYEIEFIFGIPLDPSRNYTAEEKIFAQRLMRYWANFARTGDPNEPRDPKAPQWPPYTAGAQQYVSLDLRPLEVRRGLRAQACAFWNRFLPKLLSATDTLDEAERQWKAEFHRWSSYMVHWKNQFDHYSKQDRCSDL

Common to all, as to design: scale not given: the % may be the effect or the level left
The target of assay [1] is Acetylcholinesterase (Electrophorus electricus) (UniProt O42275). The assay is described as follows: Reactivation of paraoxon-inhibited electric eel AChE at 100 uM incubated for 1 hr relative to control.
Assay [2] shares this target. As to the kind of experiment: Reactivation of paraoxon-inhibited electric eel AChE at 10 uM incubated for 1 hr relative to control.
The target is the same in assay [3]. As to the kind of experiment: Reactivation of paraoxon-inhibited electric eel AChE at 1000 uM incubated for 1 hr relative to control.
Assay [4] concerns the target Acetylcholinesterase (Homo sapiens) (UniProt P22303). As to the kind of experiment: Reactivation of paraoxon-inhibited human AChE at 1000 uM incubated for 1 hr by spectrophotometry method relative to control.
Assay [5] has the same target. The assay is described as follows: Reactivation of paraoxon-inhibited human AChE at 100 uM incubated for 1 hr by spectrophotometry method relative to control.
For assay [6] the target is unchanged. The assay is described as follows: Reactivation of paraoxon-inhibited human AChE at 10 uM incubated for 1 hr by spectrophotometry method relative to control.

Consider `O=C(/C=N/O)NCCCN1CCCCCC1`, for which the figures for the Activity in assay [1], in assay [2] and in assay [3] were 18%, 1% and 32%, respectively.
The matching figures for `O=C(/C=N/O)Nc1ccccc1`: 3%, 1% and 11%.
Taken in the same sequence, the figures for `O/N=C/c1ccc(OCc2ccc(Cl)cc2Cl)cc1` were 3%, 1% and 7%.
Taken in the same sequence, the figures for `Cc1ccc(NC(=O)/C=N/O)c(C)c1` were 1%, 0% and 8%.
In the case of `CN(C)CCNC(=O)/C=N/O`, the Activity is 12% in assay [1], 1% in assay [2] and 25% in assay [3].
The matching figures for `O=C(/C=N/O)Nc1cc(C(F)(F)F)cc(C(F)(F)F)c1`: 2%, 1% and 7%.
Take `CC(C)CCCNCCNC(=O)/C=N/O`: the Activity in assay [4] stood at 10%; in assay [1] (filed as activator), 60%; in assay [5], 7%; in assay [2] it was 6%; in assay [3] (filed as activator), 67%; in assay [6] it was 2%.
Turning to `C/C(=N\O)c1ccc(S(=O)(=O)C2CCCC2)cc1`, the Activity came out at 2% in assay [1], 0% in assay [2] and 10% in assay [3].
Taken in the same sequence, the figures for `COc1ccc(/C(C)=N/O)cc1CN1CCOCC1` were 1%, 0% and 5%.
Taken in the same sequence, the figures for `O=C(NCCCNC1CCCCC1)c1ccc(/C=N/O)nc1` were 5%, 0% and 8%.
The matching figures for `C/C(=N\O)c1cccc(OCC(=O)N2CCOCC2)c1`: 3%, 0% and 7%.
For `O=C(/C=N/O)NC1CCCCC1`, the Activity was 3% in assay [1], 1% in assay [2] and 11% in assay [3].
The matching figures for `O=C(COc1ccc(/C=N/O)cc1)N1CCOCC1`: 1%, 0% and 9%.
Turning to `CCN(CCCNC(=O)/C=N/O)Cc1ccccc1`, the Activity in assay [1] is 10%; in assay [2], 0%; in assay [3] it was 18%.
Taken in the same sequence, the figures for `O=C(/C=N/O)Nc1ccc(Cl)cc1C(F)(F)F` were 3%, 1% and 10%.
